According to patent EP4094762A1, “TREATMENT OF NEUROLOGICAL INDICATIONS” (UCL Business Ltd, priority 2021, dated 2022):

Assay: CNS penetration: intravenous cassette pharmacokinetic study, brain and plasma by LC-MS/MS
Conditions: mouse, t = 2 hr, 0.4mg/kg intravenous

| Structure (SMILES) | CNS penetration: total brain to plasma ratio |
| --- | --- |
| CC(C)(C)c1ccccc1Oc1ncccc1NC(=O)Nc1ccc(C(F)(F)F)s1 [S8, 1-(2-(2-(tert-butyl)phenoxy)pyridin-3-yl)-3-(5-(trifluoromethyl)thiophen-2-yl)urea] | 0.75 |
| O=C(Nc1ccc(OC(F)(F)F)cc1)Nc1cccnc1Oc1ccccc1C1(C(F)(F)F)CC1 [S4, 1-(4-(trifluoromethoxy)phenyl)-3-(2-(2-(1-(trifluoromethyl)cyclopropyl)phenoxy)pyridin-3-yl)urea] | 0.53 |
| CC(C)(C)c1ccccc1Oc1cccc(O)c1NC(=O)Nc1ccc(OC(F)(F)F)cc1 [S11, 1-(2-(2-(tert-butyl)phenoxy)-6-hydroxyphenyl)-3-(4-(trifluoromethoxy)phenyl)urea] | 3.1 |
